Assay results: US7989466B2, “Methods to inhibit or augment an inflammatory response” (Cambridge Enterprise Limited, priority 1999, dated 2011)

Chains of the proteins cited; added tags and fusions are not shown.
UniProt P08913, whole entry: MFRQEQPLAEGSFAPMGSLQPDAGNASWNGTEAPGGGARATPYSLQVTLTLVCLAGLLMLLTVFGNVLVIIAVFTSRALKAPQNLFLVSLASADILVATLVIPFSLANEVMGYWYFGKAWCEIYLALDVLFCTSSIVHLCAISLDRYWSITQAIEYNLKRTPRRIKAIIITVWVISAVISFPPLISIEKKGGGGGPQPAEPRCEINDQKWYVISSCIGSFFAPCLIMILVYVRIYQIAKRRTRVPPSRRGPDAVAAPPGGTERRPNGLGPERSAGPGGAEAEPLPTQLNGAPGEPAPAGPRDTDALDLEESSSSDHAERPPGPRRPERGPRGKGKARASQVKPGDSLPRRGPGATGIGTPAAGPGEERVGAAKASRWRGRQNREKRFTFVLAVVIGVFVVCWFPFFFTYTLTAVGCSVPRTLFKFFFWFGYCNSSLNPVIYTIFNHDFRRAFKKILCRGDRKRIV

Assays:
[1] = target: T1, Duffy Antigen Receptor for Chemokines (DARC) (Homo sapiens, UniProt Q16570); assay: DARC binding: competition with 125I-MCP-1 on red blood cells; settings: estimated ka for binding to red blood cells divided by average inhibitory ED50 versus each of the chemokines
T1 sequence (Q16570 1-336): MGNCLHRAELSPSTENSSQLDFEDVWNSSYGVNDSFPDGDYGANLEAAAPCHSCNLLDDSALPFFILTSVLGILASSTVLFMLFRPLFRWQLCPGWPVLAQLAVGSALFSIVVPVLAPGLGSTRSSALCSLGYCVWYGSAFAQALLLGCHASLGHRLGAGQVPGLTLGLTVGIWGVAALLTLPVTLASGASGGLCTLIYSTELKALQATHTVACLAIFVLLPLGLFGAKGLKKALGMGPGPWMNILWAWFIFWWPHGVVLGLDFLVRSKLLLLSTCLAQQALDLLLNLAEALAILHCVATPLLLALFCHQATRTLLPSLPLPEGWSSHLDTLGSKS

α2-adrenoceptors = target: T2, α2-adrenoceptors (Homo sapiens, UniProt P08913); assay: α2-adrenoreceptor membrane binding (3H-RS-79948-197); settings: 100 μM highest concentration tested
T2 construct: other: 100 μM highest concentration tested

| SMILES | DUFFY SELECTIVITY (DARC specificity ratio) [1] | ED50 for competition of RS79943 binding to α2-adrenoceptors (α2-adrenoceptors) [µM] |
| --- | --- | --- |
| NCCCC[C@H](NC(=O)[C@H](CCC(N)=O)NC(=O)[C@@H](N)CCCCN)C(=O)O [KQK] | 22.34 | – |
| O=C1CCC(N2C(=O)c3ccccc3C2=O)C(=O)N1 (centres unmarked) [Thalidomide, reference compound] | – | >100 |
